Assay results published in US20250195530A1, “POLQ INHIBITORS” (ASTRAZENECA AB, priority 2022, published 2025).

Protein sequences, listed by entry. Tags and fused reporters are not part of them. Residues count along the entry.
UniProt O75417, 1780-2590: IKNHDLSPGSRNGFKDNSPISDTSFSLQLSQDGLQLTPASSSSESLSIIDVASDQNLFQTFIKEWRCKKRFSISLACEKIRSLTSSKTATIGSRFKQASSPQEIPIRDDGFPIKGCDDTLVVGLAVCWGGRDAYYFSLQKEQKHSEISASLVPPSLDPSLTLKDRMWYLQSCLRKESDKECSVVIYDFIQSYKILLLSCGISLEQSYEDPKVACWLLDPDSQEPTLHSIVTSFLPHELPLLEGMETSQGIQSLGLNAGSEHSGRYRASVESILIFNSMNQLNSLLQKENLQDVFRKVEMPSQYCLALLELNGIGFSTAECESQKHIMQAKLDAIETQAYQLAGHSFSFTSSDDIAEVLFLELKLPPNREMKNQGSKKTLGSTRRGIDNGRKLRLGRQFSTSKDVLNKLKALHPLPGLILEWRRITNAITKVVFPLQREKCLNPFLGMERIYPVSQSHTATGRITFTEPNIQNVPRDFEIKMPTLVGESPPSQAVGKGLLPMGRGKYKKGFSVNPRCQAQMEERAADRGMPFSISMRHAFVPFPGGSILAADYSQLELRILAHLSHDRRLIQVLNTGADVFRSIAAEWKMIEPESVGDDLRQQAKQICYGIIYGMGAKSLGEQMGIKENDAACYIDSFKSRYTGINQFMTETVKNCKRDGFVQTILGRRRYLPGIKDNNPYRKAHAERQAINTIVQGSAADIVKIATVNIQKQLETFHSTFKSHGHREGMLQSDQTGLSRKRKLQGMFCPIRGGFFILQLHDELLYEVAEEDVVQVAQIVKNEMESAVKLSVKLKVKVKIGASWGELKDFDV

Biological target: isolated polymerase domain (I1780-V2590) of DNA polymerase theta (Polθ) (Homo sapiens (Human), UniProt O75417)
Assay: biochemical

| IC50 [nM] | SMILES |
| --- | --- |
| 5.01 | CC1(Oc2ncnc3c2nc(-c2ccc(OCCCCC(=O)O)cc2Cl)n3Cc2cccc(Cl)c2)CC1 [Example 43, 5-(3-Chloro-4-(9-(3-chlorobenzyl)-6-(1-methylcyclopropoxy)-9H-purin-8-yl)phenoxy)pentanoic acid] |
| 5.01 | Cc1ccnc(Cn2c(-c3ccc(CCNC(=O)[C@@H](C)O)cc3Cl)nc3c(OC4(C)CC4)ncnc32)c1 [Example T368, (R)-N-(3-chloro-4-(6-(1-methylcyclopropoxy)-9-((4-methylpyridin-2-yl)methyl)-9H-purin-8-yl)phenethyl)-2-hydroxypropanamide] |
| 7.94 | Cc1cccc(Cn2c(-c3ccc(OCCC(=O)O)cc3Cl)nc3c(OC4(C)CC4)ncnc32)c1 [Example T167, 3-(3-chloro-4-(9-(3-methylbenzyl)-6-(1-methylcyclopropoxy)-9H-purin-8-yl)phenoxy)propanoic acid] |
| 6.31 | CC1(Oc2ncnc3c2nc(-c2ccc(OCCN4CCNCC4)cc2Cl)n3Cc2cnc(Cl)s2)CC1 [Example T146, 2-chloro-5-((8-(2-chloro-4-(2-(piperazin-1-yl)ethoxy)phenyl)-6-(1-methylcyclopropoxy)-9H-purin-9-yl)methyl)thiazole] |
| 6.31 | Cc1ccnc(Cn2c(-c3ccc(OCC(C)(C)O)cc3Cl)nc3c(OC4(C)CC4)ncnc32)c1 [Example 45, 1-(3-Chloro-4-(6-(1-methylcyclopropoxy)-9-((4-methylpyridin-2-yl)methyl)-9H-purin-8-yl)phenoxy)-2-methylpropan-2-ol] |
| 6.31 | Cc1ccnc(Cn2c(-c3ccc(OCC4(O)CC4)cc3Cl)nc3c(OC4(C)CC4)ncnc32)c1 [Example T197, 1-((3-chloro-4-(6-(1-methylcyclopropoxy)-9-((4-methylpyridin-2-yl)methyl)-9H-purin-8-yl)phenoxy)methyl)cyclopropan-1-ol] |
| 3.16 | Cc1cnc(Cn2c(-c3ccc(OC4CC5(C4)CN(C)C5)cc3Cl)nc3c(OC4(C)CC4)ncnc32)s1 [Example T359, 2-((8-(2-chloro-4-((2-methyl-2-azaspiro[3.3]heptan-6-yl)oxy)phenyl)-6-(1-methylcyclopropoxy)-9H-purin-9-yl)methyl)-5-methylthiazole] |
| 3.16 | Cc1ccnc(Cn2c(-c3ccc(CC(=O)N(C)C)cc3Cl)nc3c(OC4(C)CC4)ncnc32)c1 [Example T210, 2-(3-chloro-4-(6-(1-methylcyclopropoxy)-9-((4-methylpyridin-2-yl)methyl)-9H-purin-8-yl)phenyl)-N,N-dimethylacetamide] |
| 5.01 | CC1(Oc2ncnc3c2nc(-c2ccc(CCCC(=O)O)cc2Cl)n3Cc2cccc(Cl)c2)CC1 [Example T155, 4-(3-chloro-4-(9-(3-chlorobenzyl)-6-(1-methylcyclopropoxy)-9H-purin-8-yl)phenyl)butanoic acid] |
| 3.98 | COc1ccc(F)cc1Cn1c(-c2cccc(OCCC(=O)O)c2Cl)nc2c(OC3(C)CC3)ncnc21 [Example U83, 3-(2-chloro-3-(9-(5-fluoro-2-methoxybenzyl)-6-(1-methylcyclopropoxy)-9H-purin-8-yl)phenoxy)propanoic acid] |
| 6.31 | CC(CCOc1ccc(-c2nc3c(OC4(C)CC4)ncnc3n2Cc2ccccc2C2CC2)c(Cl)c1)C(=O)O (single isomer, unassigned) [Example T599, 4-(3-chloro-4-(9-(2-cyclopropylbenzyl)-6-(1-methylcyclopropoxy)-9H-purin-8-yl)phenoxy)-2-methylbutanoic acid] |
| 6.31 | Cc1ccnc(Cn2c(-c3ccc(CCNC(=O)CO)cc3Cl)nc3c(OC4(C)CC4)ncnc32)c1 [Example T223, N-(3-chloro-4-(6-(1-methylcyclopropoxy)-9-((4-methylpyridin-2-yl)methyl)-9H-purin-8-yl)phenethyl)-2-hydroxyacetamide] |
| 6.31 | CC1(Oc2ncnc3c2nc(-c2ccc(CC(N)=O)cc2Cl)n3Cc2cccc(C#N)c2)CC1 [Example T81, 2-(3-chloro-4-(9-(3-cyanobenzyl)-6-(1-methylcyclopropoxy)-9H-purin-8-yl)phenyl)acetamide] |
| 5.01 | Cc1ccnc(Cn2c(-c3ccc(OCCN4CCNCC4)cc3Cl)nc3c(OC4(C)CC4)ncnc32)c1F [Example T504, 8-(2-chloro-4-(2-(piperazin-1-yl)ethoxy)phenyl)-9-((3-fluoro-4-methylpyridin-2-yl)methyl)-6-(1-methylcyclopropoxy)-9H-purine] |
| 7.94 | Cc1ccnc(Cn2c(-c3ccc(CC(=O)NCCCO)cc3Cl)nc3c(OC4(C)CC4)ncnc32)c1 [Example T370, 2-(3-chloro-4-(6-(1-methylcyclopropoxy)-9-((4-methylpyridin-2-yl)methyl)-9H-purin-8-yl)phenyl)-N-(3-hydroxypropyl)acetamide] |
| 501 | CC1(Oc2ncnc3c2nc(-c2ccc(CC(N)=O)cc2Cl)n3Cc2nnc(C3CC3)o2)CC1 [Example T21, 2-(3-chloro-4-(9-((5-cyclopropyl-1,3,4-oxadiazol-2-yl)methyl)-6-(1-methylcyclopropoxy)-9H-purin-8-yl)phenyl)acetamide] |

| IC50 [nM] | SMILES |
| --- | --- |
| 5.01 | Cc1cnc(Cn2c(-c3ccc(OC4CCCNCC4)cc3Cl)nc3c(OC4(C)CC4)ncnc32)s1 (single isomer, unassigned) [Example T242, 2-((8-(4-(azepan-4-yloxy)-2-chlorophenyl)-6-(1-methylcyclopropoxy)-9H-purin-9-yl)methyl)-5-methylthiazole] |
| 3.98 | C[C@H](CCOc1ccc(-c2nc3c(OC4(C)CC4)ncnc3n2Cc2cccc(C#N)c2)c(Cl)c1)C(=O)O [Example T401, (R)-4-(3-chloro-4-(9-(3-cyanobenzyl)-6-(1-methylcyclopropoxy)-9H-purin-8-yl)phenoxy)-2-methylbutanoic acid] |
| 20 | CC(CCOc1ccc(-c2nc3c(OC4(C)CC4)ncnc3n2Cc2cccc(Cl)c2C#N)c(Cl)c1)C(=O)O (racemic) [Example U37, 4-(3-chloro-4-(9-(3-chloro-2-cyanobenzyl)-6-(1-methylcyclopropoxy)-9H-purin-8-yl)phenoxy)-2-methylbutanoic acid] |
| 7.94 | Cc1ccnc(Cn2c(-c3ccc(O[C@H]4CCN(C(=O)CO)C4)cc3Cl)nc3c(OC4(C)CC4)ncnc32)c1 [Example T483, (S)-1-(3-(3-chloro-4-(6-(1-methylcyclopropoxy)-9-((4-methylpyridin-2-yl)methyl)-9H-purin-8-yl)phenoxy)pyrrolidin-1-yl)-2-hydroxyethan-1-one] |
| 10 | Cc1ccnc(Cn2c(-c3ccc(NS(C)(=O)=O)cc3Cl)nc3c(OC4(C)CC4)ncnc32)c1 [Example T29, N-(3-chloro-4-(6-(1-methylcyclopropoxy)-9-((4-methylpyridin-2-yl)methyl)-9H-purin-8-yl)phenyl)methanesulfonamide] |
| 10 | Cc1ccnc(Cn2c(-c3ccc(OCC(=O)NC4CC4)cc3Cl)nc3c(OC4(C)CC4)ncnc32)c1 [Example T318, 2-(3-chloro-4-(6-(1-methylcyclopropoxy)-9-((4-methylpyridin-2-yl)methyl)-9H-purin-8-yl)phenoxy)-N-cyclopropylacetamide] |
| 7.94 | CNCCOc1ccc(-c2nc3c(OC4(C)CC4)ncnc3n2Cc2cc(C)ccn2)c(Cl)c1 [Example T137, 2-(3-chloro-4-(6-(1-methylcyclopropoxy)-9-((4-methylpyridin-2-yl)methyl)-9H-purin-8-yl)phenoxy)-N-methylethan-1-amine] |
| 20 | CNC(=O)c1cccc(-c2nc3c(OC4(C)CC4)ncnc3n2Cc2cc(C)ccn2)c1Cl [Example T55, 2-chloro-N-methyl-3-(6-(1-methylcyclopropoxy)-9-((4-methylpyridin-2-yl)methyl)-9H-purin-8-yl)benzamide] |
| 6.31 | CC(=O)COc1ccc(-c2nc3c(OC4(C)CC4)ncnc3n2Cc2cc(C)ccn2)c(Cl)c1 [Example T104, 1-(3-chloro-4-(6-(1-methylcyclopropoxy)-9-((4-methylpyridin-2-yl)methyl)-9H-purin-8-yl)phenoxy)propan-2-one] |
| 6.31 | Cc1cnc(Cn2c(-c3ccc(OCCN4CC[C@@H](O)C4)cc3Cl)nc3c(OC4(C)CC4)ncnc32)s1 [Example T245, (R)-1-(2-(3-chloro-4-(6-(1-methylcyclopropoxy)-9-((5-methylthiazol-2-yl)methyl)-9H-purin-8-yl)phenoxy)ethyl)pyrrolidin-3-ol] |
| 6.31 | Cc1ccnc(Cn2c(-c3ccc(N4CC(O)C4)cc3Cl)nc3c(OC4(C)CC4)ncnc32)c1 [Example T115, 1-(3-chloro-4-(6-(1-methylcyclopropoxy)-9-((4-methylpyridin-2-yl)methyl)-9H-purin-8-yl)phenyl)azetidin-3-ol] |
| 7.94 | Cc1ccnc(Cn2c(-c3ccc(OC4CC5(COC5)C4)cc3Cl)nc3c(OC4(C)CC4)ncnc32)c1 [Example T426, 8-(4-((2-oxaspiro[3.3]heptan-6-yl)oxy)-2-chlorophenyl)-6-(1-methylcyclopropoxy)-9-((4-methylpyridin-2-yl)methyl)-9H-purine] |
| 31.6 | Cc1ccnc(Cn2c(-c3ccc(N4CCNCCC4=O)cc3Cl)nc3c(OC4(C)CC4)ncnc32)c1 [Example T338, 4-(3-chloro-4-(6-(1-methylcyclopropoxy)-9-((4-methylpyridin-2-yl)methyl)-9H-purin-8-yl)phenyl)-1,4-diazepan-5-one] |
| 3.98 | CC(CCOc1ccc(-c2nc3c(OC4(C)CC4)ncnc3n2Cc2cc(Br)ccc2F)c(Cl)c1)C(=O)O (racemic) [Example T258, 4-(4-(9-(5-bromo-2-fluorobenzyl)-6-(1-methylcyclopropoxy)-9H-purin-8-yl)-3-chlorophenoxy)-2-methylbutanoic acid] |
| 5.01 | Cc1ccnc(Cn2c(-c3ccc(C(=O)N4CC[C@H](N(C)C)C4)cc3Cl)nc3c(OC4(C)CC4)ncnc32)c1 [Example T588, (S)-(3-chloro-4-(6-(1-methylcyclopropoxy)-9-((4-methylpyridin-2-yl)methyl)-9H-purin-8-yl)phenyl)(3-(dimethylamino)pyrrolidin-1-yl)methanone] |

| SMILES | IC50 [nM] |
| --- | --- |
| CC1(Oc2ncnc3c2nc(-c2ccc(OCCCCOCC(=O)O)cc2Cl)n3Cc2cccc(Cl)c2)CC1 [Example T445, 2-(4-(3-chloro-4-(9-(3-chlorobenzyl)-6-(1-methylcyclopropoxy)-9H-purin-8-yl)phenoxy)butoxy)acetic acid] | 5.01 |
